Data on 1 molecule can be found in patent US8852928B2, “LexA-based chemical-inducible gene expression system for use in transgenic animals” (Temasek Life Sciences Laboratory Limited, priority 2007, dated 2014).

The target of the data set is T1, chimeric transcription factor consisting of Gal4 DNA binding domain, truncated human progesterone receptor ligand binding domain and NF-κB activation domain (Homo sapiens, UniProt P06401).
T1 sequence (P06401 640-914): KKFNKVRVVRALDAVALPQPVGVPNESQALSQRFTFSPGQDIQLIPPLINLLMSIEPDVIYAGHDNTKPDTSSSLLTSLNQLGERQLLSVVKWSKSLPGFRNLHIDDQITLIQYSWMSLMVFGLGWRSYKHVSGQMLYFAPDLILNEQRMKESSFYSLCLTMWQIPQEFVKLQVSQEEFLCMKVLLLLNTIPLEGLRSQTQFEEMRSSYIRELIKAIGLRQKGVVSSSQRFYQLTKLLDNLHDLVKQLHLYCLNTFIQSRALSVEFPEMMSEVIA
Description: Gal4/UAS-based mifepristone-inducible system in transgenic fish (SWD-G4 line). The following applies: 1 μM at 10 hpf onwards.

With `CC#C[C@]1(O)CC[C@H]2[C@@H]3CCC4=CC(=O)CCC4=C3[C@@H](c3ccc(N(C)C)cc3)C[C@@]21C` [mifepristone], the “Developmental phenotypes in fish harboring Gal4/UAS-based mifepristone-inducible system” value is listed as “exhibited developmental phenotypes only upon induction”.
